Biological target: D3 receptor (Rattus norvegicus, UniProt P19020)
Assay: Induction of yawning behavior in rats
Assay type: in vivo

Sequences of proteins named here, by UniProt entry; tags and fusion partners are left off.
UniProt P19020, whole entry: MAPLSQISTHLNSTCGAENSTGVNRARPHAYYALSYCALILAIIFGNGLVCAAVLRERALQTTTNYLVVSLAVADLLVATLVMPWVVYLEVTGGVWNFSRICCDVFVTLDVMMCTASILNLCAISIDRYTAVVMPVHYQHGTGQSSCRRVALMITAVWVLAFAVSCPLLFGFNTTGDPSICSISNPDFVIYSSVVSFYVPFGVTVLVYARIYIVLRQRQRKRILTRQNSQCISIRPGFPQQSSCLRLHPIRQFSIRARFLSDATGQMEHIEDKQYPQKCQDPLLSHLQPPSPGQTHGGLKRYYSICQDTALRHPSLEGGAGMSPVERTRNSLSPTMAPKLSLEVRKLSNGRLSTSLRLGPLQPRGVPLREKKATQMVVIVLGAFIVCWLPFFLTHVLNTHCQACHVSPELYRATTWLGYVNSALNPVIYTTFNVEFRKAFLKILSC

Compound: CCCN(CC[C@H]1CC[C@H](NC(=O)/C=C/c2ccccc2)CC1)[C@H]1CCc2nc(N)sc2C1
- Activity in in vivo functional assays in rats: only active at very high doses

Source: patent publication US8486981B2, “Selective ligands for the dopamine 3 (D3) receptor and methods of using the same” (The Regents of the University of Michigan, priority 2011, dated 2013)
